{"source": "patent US12485106B2", "about": "“Methods of treating fibrotic liver diseases or conditions with indeglitazar” (PLEIOGENIX INC., priority 2023, dated 2025)", "origin": "cited, not measured here", "conditions": "clinical studies, patients; cited from earlier work"}
{"substance": "insulin", "values": [{"measurement": "incidence of edema", "result": 7.0, "unit": "%"}]}
